Test results as given in patent publication US10577368B2 (The United States of America, as represented by the …, priority 2013, dated 2020).

Amino acid sequences for entries named in this document (tags omitted).
UniProt Q01959, whole entry: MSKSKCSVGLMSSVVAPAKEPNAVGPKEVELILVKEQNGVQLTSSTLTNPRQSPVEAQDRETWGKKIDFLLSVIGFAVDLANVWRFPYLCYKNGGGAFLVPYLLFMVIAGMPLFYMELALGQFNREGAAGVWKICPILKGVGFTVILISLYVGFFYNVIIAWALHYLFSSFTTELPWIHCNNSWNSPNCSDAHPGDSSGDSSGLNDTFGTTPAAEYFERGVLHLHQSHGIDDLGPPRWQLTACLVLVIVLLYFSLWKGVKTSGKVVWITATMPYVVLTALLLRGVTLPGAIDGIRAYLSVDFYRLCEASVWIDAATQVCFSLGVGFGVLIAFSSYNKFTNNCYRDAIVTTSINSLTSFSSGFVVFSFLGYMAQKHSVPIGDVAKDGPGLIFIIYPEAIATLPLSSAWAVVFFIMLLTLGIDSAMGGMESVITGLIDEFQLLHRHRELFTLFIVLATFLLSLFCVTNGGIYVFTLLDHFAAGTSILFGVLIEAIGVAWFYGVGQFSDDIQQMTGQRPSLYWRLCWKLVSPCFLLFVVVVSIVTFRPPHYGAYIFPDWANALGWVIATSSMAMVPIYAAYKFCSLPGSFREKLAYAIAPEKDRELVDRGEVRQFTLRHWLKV

Columns and labels:
[1] = system: chronic constriction injury model of neuropathic pain; assay: CCI model of neuropathic pain, reversal of mechano-allodynia; type: in vivo; details: 3 μmol/kg p.o., mice; for Max. effect Emax (% ± SEM) / Time of peak protection: ipsilateral hind paw
human DAT = human DAT (Homo sapiens (Human), UniProt Q01959); assay: Radioligand ([3H]WIN35428) binding at the dopamine transporter; details: compound at 10 μM
[2] = system: muscarinic, adrenergic, dopamine, GABA, histamine, opiate, serotonin receptors and transporters; assay: Off-target binding panel (receptors and transporters of Table 5); details: 10 μM

SMILES	Effect at 3 h (% ± SEM) [1] [%]	Max. effect Emax (% ± SEM) [1] [%]	Time of peak protection [1] [h]	Enhancement of radioligand binding at the dopamine transporter (human DAT) [×]	Interactions at other receptors of the off-target panel [2]
CNC(=O)[C@@]12C[C@@H]1[C@@H](n1cnc3c(NC)nc(-n4cc(-c5ccc(Cl)s5)nn4)nc31)[C@H](O)[C@@H]2O	8 ± 7	67 ± 19	1		
CNC(=O)[C@@]12C[C@@H]1[C@@H](n1cnc3c(NC)nc(C#Cc4ccc(F)c(F)c4)nc31)[C@H](O)[C@@H]2O				7	No interactions at other receptors
CCNc1nc(-n2cc(-c3ccc(Cl)s3)nn2)nc2c1ncn2C1C(O)C(O)C2(C(=O)NC)CC12 (centres unmarked)	8 ± 8	89 ± 11	1		
